Biological target: human LPA1 (Homo sapiens, UniProt Q92633)
Assay: In vitro LPA1 calcium flux antagonist assay, Bioduro protocol
Settings: read-out: IC50 (nM) in Assay B2; CHO-K1 cells overexpressing human LPA1 and G15a; LPA challenge at EC80; calcium mobilization on FLIPR Tetra
Method: In Vitro LPA1 Calcium Flux Antagonist Assay Bioduro Protocol
CHO-K1 cells overexpressing human LPA1 and G15a were seeded at a total volume of 20 uL (15000 cells/well) into Matrigel pre-coated 384-well plates (coming -3764) and incubated at 37° C. After overnight incubation, the cells were serum starved for 4 h. Assays were performed in dye loading buffer containing 1× Fluo-8 AM (AAT Bioquest, 21080) and 2.5 mM probenecid (Thermo Fisher, 36400) in HBSS/20 mM Hepes. After cell starvation, the medium was replaced with 20 uL of dye loading buffer and incubated at 37° C. for 30 min. Then 5 uL of 5× compound titrated in dye loading buffer was added to the cells and incubated for 30 min followed by LPA challenge at EC80. Calcium mobilization was measured on a FLIPR Tetra (MDS). For LPA EC80 determination, starved cells were incubated with 20 uL of dye loading buffer for 1 h, then 5 uL of 5×LPA titrated in dye loading buffer was added to the cells. Calcium signals induced by LPA was monitors on a FLIPR.
Percentage inhibition is calculated using the following formula:
% Inhibition=100%×(1−(mean RFU of test sample−mean RFU of DMSO)/(mean RFU of LPA control−mean RFU of DMSO)).

Amino acid sequences for entries named in this document (tags omitted).
UniProt Q92633, whole entry: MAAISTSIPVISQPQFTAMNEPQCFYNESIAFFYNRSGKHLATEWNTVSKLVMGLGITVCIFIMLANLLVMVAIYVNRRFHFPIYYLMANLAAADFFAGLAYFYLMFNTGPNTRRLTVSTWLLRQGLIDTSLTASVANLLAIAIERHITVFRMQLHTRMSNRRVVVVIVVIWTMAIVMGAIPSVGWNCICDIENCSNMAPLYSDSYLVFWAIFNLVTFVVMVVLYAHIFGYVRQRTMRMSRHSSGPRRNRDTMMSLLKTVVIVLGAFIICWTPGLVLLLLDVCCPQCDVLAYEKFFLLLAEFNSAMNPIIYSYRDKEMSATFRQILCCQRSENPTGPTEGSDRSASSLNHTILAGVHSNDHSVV

Structure (SMILES)	IC50 [nM]
COc1cc([C@@H](O)[C@H](Cc2nc(CC(=O)O)c(CC(C)C)s2)OC2CCCC2)cc(OC)c1C	37.1
COc1cc([C@@H](O)[C@H](Cc2nc3c(C(=O)O)cccc3s2)OCC(C)C)cc(OC)c1C	17.9
